Where two headings read alike, the source gives them in different places.
Assay: Colonic intubation study: plasma pharmacokinetics of rabeprazole and esomeprazole
Format: in vivo
Conditions: male, human, po, 40 mg, TRT E: esomeprazole 40 mg oral tablet
Procedure: A single-dose, open-label, partially randomized, five-treatment, five-period, crossover pilot study was performed in healthy males to determine relative pharmacokinetics of rabeprazole, and comparators when dosed either orally or colonically. The study was a single dose study with blood sampling up to 24 hours following initiation. […] Colonic dosing occurred using a nasoenteral tube. Treatment C was a single 20 mg dose of rabeprazole sodium oral enteric coated tablets dosed orally. Treatment D was placebo (200 mL of water) dosed orally. Treatment E was a single 40 mg dose of esomeprazole magnesium trihydrate dosed as an oral film-coated tablet. The following rabeprazole and esomeprazole pharmacokinetic (PK) parameters were determined: maximum plasma concentration [Cmax], time to maximum concentration [Tmax], apparent elimination rate constant [k] and half-life [t1/2], area under the plasma concentration-time profile (AUC) to time t [AUCt], where t is the time of the last quantifiable plasma concentration, and AUC to infinity [AUCinf]. For subjects whose apparent elimination rate constant [k] could not be properly determined, the AUC to infinity [AUCinf]) was calculated based on the median apparent elimination constant [k] of the subjects with available t1/2 values in the same treatment period. […] The intragastric pH profile were determined. […]

Tmax (N = 19, read-out: Tmax (median)): 1.5 h | Tmax (subset N = 14, read-out: Tmax (median)): 1.5 h
SMILES: COc1ccc2nc([S@@+]([O-])Cc3ncc(C)c(OC)c3C)[nH]c2c1 [Esomeprazole]

From patent US20070298105A1, “METHODS OF TREATING CONDITIONS BY SUSTAINED RELEASE ADMINISTRATION OF BENZIMIDAZOLE DERIVATIVES” (priority 2006, published 2007)
